Usually IC50 stands for the concentration that inhibits the measured activity by half. Low readings indicate greater potency in that assay, high ones weaker potency in that assay.

The values that follow come from ChEMBL document CHEMBL1124922 (J Med Chem, 1990).

Some compounds may have been tested in ways that are not shown here.

Series [1] is described as follows: Half-life in culture medium was determined at 37 degrees Celsius in alpha MEM with 10% fetal calf-serum (FCS). The conditions noted are these: cattle.
A short description of series [2]: Ratio = (aerobic IC50 / hypoxic IC50) determined against UV-4 cells with an 18 hr exposure.
Series [3] in a line: Evaluated for inhibitory concentration against UV-4 cells under aerobic conditions with a compound exposure of 1 h.
Series [4] in a line: Half-life was determined in culture medium at 37 degrees Celsius in alpha MEM.
The nature of series [5]: Evaluated for inhibitory concentration against UV-4 cells under aerobic conditions with a compound exposure of 18 h.

`Cc1cccc(N(CCCl)CCCl)c1`: the T1/2 in series [1] came out at 210 min; in series [4] it was 85.2 min. The Ratio in series [2] was found to be 0.94. The half-inhibitory concentration (IC50) in series [3] amounted to 1200 nM; in series [5], 150 nM.
